{"source": "patent US20040097529A1", "about": "“Novel use of arylethene sulfonamide derivative” (priority 2001, published 2004)", "key": {"[1]": {"tested_on": "chronic renal failure (5/6Nx) rats", "conditions": "rat, in vivo, po, 1 mg/kg/day", "description": "Male Wistar rats of 8 weeks of age were used in the experiment. A Rat was anesthetized with petobarbital and ⅔ of the left kidney was cut off, and one week after the right kidney was removed completely. Two weeks after the ⅚ nephrectomy, systolic blood pressure (SBP) was measured by a tail-cuff method, and the urine was collected in a metabolic cage for 24 hours to measure the urinary protein excretion. Rats were divided into 3 groups (each group: n=9) so that no difference occurred between the respective groups. Thereafter, a solvent (0.5% MC) was orally administered to the ⅚Nx-Cont. group at a dose of 5 ml/kg over 8 weeks. […] Similarly, to the ⅚Nx-Ena. group was administered 10 mg/kg/day of enalapril maleate dissolved in a solvent (0.5% MC). On the other hand, the solvent (0.5% MC) alone was orally administered to the abdominal-sectioned rats as a control group (Sham). Every 2 weeks, the urine was collected for 24 hours to measure the urinary protein excretion. Additionally, every 4 weeks, SBP was measured to examine the effect on the blood pressure.\nThe results were indicated by the mean±error. In comparison between the Sham group and the ⅚Nx-Cont. group, a t-test was made without correspondence, and when the significant level is less than 5%, it is considered as a significant difference. […]"}, "[2]": {"tested_on": "diabetic rats induced by streptozotocin (STZ)", "assay": "Effect on the blood parameter and urinary parameter in diabetic rats induced by streptozotocin (STZ)", "type": "in vivo, Wistar (Crj) rats", "description": "Wistar (Crj) rats of 9 weeks of age were divided into 5 groups so that there was no bias in urinary albumin excretion. To the 4 groups of the rats was administered intravenously STZ (50 mg/kg). […] After the lapse of 2, 4 and 6 weeks from the start of administration, urine was collected for 24 hours in a metabolic cage to measure a urinary parameter. The blood was collected from the tail vein after 2 and 4 weeks and from the abdominal aorta under anesthesia after 6 weeks to measure a blood parameter.\nThe results were indicated by the mean±error. In comparison between the Sham group and the STZ-Cont. group, a t-test was made without correspondence, and when the significant level is less than 5%, it is considered as a significant difference. In comparison between the STZ-dose groups of rats, multiple comparison (Dunnett's test) was made respectively without correspondence following the variance analysis of one-way classification. When the significant level is less than 5%, it is considered as a significant difference."}, "[3]": {"tested_on": "spontaneously hypertensive rats (SHR)", "conditions": "rat, in vivo"}, "[4]": {"tested_on": "rat's glomerular mesangial cells", "text": "The results were indicated by the mean±error. […] When the significant level is less than 5%, it is considered as a significant difference."}, "[5]": {"conditions": "Compound 1 0.1 mg/kg p.o., 4 weeks"}, "[6]": {"conditions": "Compound 1 1 mg/kg p.o., 4 weeks"}}, "note": "Where “and” joins values, the source holds several entries; their conditions need not be identical. Equal entries are not always repeated."}
{"smiles": "COc1ccccc1Oc1c(NS(=O)(=O)C=Cc2ccccc2)nc(-c2ncccn2)nc1OC", "note": "[Compound 1, N-[6-Methoxy-5-(2-methoxyphenoxy)-2-(pyrimidin-2-yl)pyrimidin-4-yl]-2-phenylethenesulfonamide]", "values": [{"measurement": "Systolic blood pressure", "setting": "[1]", "value": "135 ± 6 mmHg and 142 ± 6 mmHg and 139 ± 5 mmHg"}, {"measurement": "hypotensive effect (SBP)", "setting": "[1]", "value": "no significant hypotension was observed"}, {"measurement": "Blood glucose level", "setting": "[2]; Compound 1 0.1 mg/kg p.o. once a day, 2 weeks", "value": "357.1 ± 14.5", "unit": "mg/dL"}, {"measurement": "Blood glucose level", "setting": "[2]; Compound 1 0.1 mg/kg p.o. once a day, 4 weeks", "value": "396.0 ± 19.4", "unit": "mg/dL"}, {"measurement": "Blood glucose level", "setting": "[2]; Compound 1 0.1 mg/kg p.o. once a day, 6 weeks", "value": "417.8 ± 14.6", "unit": "mg/dL"}, {"measurement": "Urinary albumin excretion", "setting": "[2]; Compound 1 0.1 mg/kg p.o., 0 week", "value": "0.45 ± 0.03", "unit": "mg/day"}, {"measurement": "Urinary albumin excretion", "setting": "[2]; Compound 1 0.1 mg/kg p.o., 2 weeks", "value": "1.03 ± 0.07", "unit": "mg/day"}, {"measurement": "Blood cholesterol level", "setting": "[2]; [5]", "value": "247.5 ± 29.8", "unit": "mg/dL"}, {"measurement": "Blood triglyceride level", "setting": "[2]; [5]", "value": "866.6 ± 97.5", "unit": "mg/dL"}, {"measurement": "Urinary albumin excretion", "setting": "[2]; [5]", "value": "0.74 ± 0.13", "unit": "mg/day"}, {"measurement": "Urinary albumin excretion", "setting": "[2]; Compound 1 0.1 mg/kg p.o., 6 weeks", "value": "1.37 ± 0.19", "unit": "mg/day"}, {"measurement": "Blood glucose level", "setting": "[2]; Compound 1 1 mg/kg p.o. once a day, 2 weeks", "value": "381.7 ± 12.9", "unit": "mg/dL"}, {"measurement": "Blood glucose level", "setting": "[2]; Compound 1 1 mg/kg p.o. once a day, 4 weeks", "value": "376.2 ± 19.6", "unit": "mg/dL"}, {"measurement": "Blood glucose level", "setting": "[2]; Compound 1 1 mg/kg p.o. once a day, 6 weeks", "value": "367.1 ± 12.2", "unit": "mg/dL"}, {"measurement": "Urinary albumin excretion", "setting": "[2]; Compound 1 1 mg/kg p.o., 0 week", "value": "0.50 ± 0.05", "unit": "mg/day"}, {"measurement": "Urinary albumin excretion", "setting": "[2]; Compound 1 1 mg/kg p.o., 2 weeks", "value": "0.67 ± 0.05", "unit": "mg/day"}, {"measurement": "Blood cholesterol level", "setting": "[2]; [6]", "value": "158.1 ± 14.7", "unit": "mg/dL"}, {"measurement": "Blood triglyceride level", "setting": "[2]; [6]", "value": "494.0 ± 55.8", "unit": "mg/dL"}, {"measurement": "Urinary albumin excretion", "setting": "[2]; [6]", "value": "0.46 ± 0.05", "unit": "mg/day"}, {"measurement": "Urinary albumin excretion", "setting": "[2]; Compound 1 1 mg/kg p.o., 6 weeks", "value": "1.03 ± 0.12", "unit": "mg/day"}, {"measurement": "urinary albumin excretion (UAE) change", "setting": "[2]; Compound 1 0.1 and 1 mg/kg p.o., after 2, 4 and 6 weeks", "value": "made UAE decrease dose-dependently"}, {"measurement": "effect on the blood pressure", "setting": "[3]", "value": "no effect was observed"}, {"measurement": "effect on the heart rate", "setting": "[3]", "value": "no effect was observed"}, {"measurement": "inhibition of the growth of rat's cultured mesangial cells induced by ET-1", "setting": "[4]", "value": "inhibited the growth"}]}
{"smiles": "COc1ccccc1Oc1c(NS(=O)(=O)C=Cc2ccccc2)nc(-c2ncccn2)nc1OC", "note": "[Compound A, N-[6-Methoxy-5-(2-methoxyphenoxy)-2-(pyrimidin-2-yl)pyrimidin-4-yl]-2-phenylethenesulfonamide]", "values": [{"measurement": "effect on the blood pressure", "setting": "[3]", "value": "did not change the systemic blood pressure"}]}
